In paper PMC5648829 (Scientific Reports, 2017):

Biological target: T1, LTA4H (Homo sapiens, UniProt P09960)
T1 sequence (P09960 1-611): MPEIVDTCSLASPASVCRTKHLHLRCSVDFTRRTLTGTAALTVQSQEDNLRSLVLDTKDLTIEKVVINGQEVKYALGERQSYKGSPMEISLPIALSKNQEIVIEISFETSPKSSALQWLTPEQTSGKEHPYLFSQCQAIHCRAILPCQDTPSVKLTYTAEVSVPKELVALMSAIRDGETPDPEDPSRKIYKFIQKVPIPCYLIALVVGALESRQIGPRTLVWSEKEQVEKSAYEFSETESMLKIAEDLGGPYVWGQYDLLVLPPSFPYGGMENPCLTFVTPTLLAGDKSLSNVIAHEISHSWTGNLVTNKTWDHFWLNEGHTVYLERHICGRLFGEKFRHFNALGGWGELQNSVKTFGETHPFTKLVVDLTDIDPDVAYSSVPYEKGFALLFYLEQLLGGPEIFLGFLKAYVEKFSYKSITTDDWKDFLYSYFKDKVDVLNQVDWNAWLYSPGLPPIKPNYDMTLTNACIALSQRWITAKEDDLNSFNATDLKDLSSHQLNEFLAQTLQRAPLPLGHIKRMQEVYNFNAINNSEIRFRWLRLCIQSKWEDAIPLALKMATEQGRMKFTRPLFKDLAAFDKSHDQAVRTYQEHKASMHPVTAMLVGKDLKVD
Test: PGP degradation assay in human blood
Assay type: cell-based
Set-up: Fresh blood was collected in heparinized tubes by venipuncture from volunteers; from tissue; host or cells: fresh human whole blood from volunteers, diluted 1:3 in RPMI
Details: DG-051 20 µM, after 24 h
Experimental: Fresh blood was collected in heparinized tubes by venipuncture from volunteers from the Novartis Blood Donor Center, Basel. The blood was diluted 1:3 in Roswell Park Memorial Institute (RPMI) containing HEPES (0.025 M). […] PGP and LPS were added at final concentrations of 2 µg/ml each and incubated up to 24 h at 37 °C, 5% CO2 and 90% humidity before samples were collected for LC-MS/MS analysis.

initial PGP levels still remaining: over 60%
Structure (SMILES): O=C(O)CCCN1CCC[C@H]1COc1ccc(Oc2ccc(Cl)cc2)cc1 [DG-051, 4-[(2S)-2-{[4-(4-chlorophenoxy)phenoxy]methyl}-1-pyrrolidinyl]butanoic acid]
